Experimental findings from article PMC6746264, “Novel tyrosinase inhibitory peptide with free radical scavenging ability” (Journal of Enzyme Inhibition and Medicinal Chemistry, 2019) are described below.

Protein sequences, listed by entry. Tags and fused reporters are not part of them. Residues count along the entry.
UniProt C7FF04, 1-392: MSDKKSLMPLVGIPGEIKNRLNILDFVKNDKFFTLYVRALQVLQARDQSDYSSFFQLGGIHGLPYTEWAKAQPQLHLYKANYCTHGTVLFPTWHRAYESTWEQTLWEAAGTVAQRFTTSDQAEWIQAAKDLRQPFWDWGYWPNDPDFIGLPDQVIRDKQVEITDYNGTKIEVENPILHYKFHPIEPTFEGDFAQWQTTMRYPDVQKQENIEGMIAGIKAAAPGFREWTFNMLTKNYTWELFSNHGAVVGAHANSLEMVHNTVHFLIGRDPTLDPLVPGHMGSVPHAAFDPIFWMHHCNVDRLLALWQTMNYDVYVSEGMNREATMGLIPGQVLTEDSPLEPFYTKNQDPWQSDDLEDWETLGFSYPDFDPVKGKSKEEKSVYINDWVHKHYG

The target of the assay is mushroom tyrosinase (Agaricus bisporus, UniProt C7FF04). The experiment in a line: Comparison of tyrosinase inhibition rate (maximum reaction rate, IC50). Format: biochemical. To be noted: in vitro, mushroom tyrosinase 100 U per well, tyrosine 2.5 mM, inhibitor preincubated 10 min, 37 °C, absorbance 475 nm over 2 h, maximum reaction rate (Vss). As for the experimental part: Figure 2. […] (D) The plot of the percentage of enzyme activity (Vss) vs the […] concentration [I]. IC50 of the inhibitors were directly obtained from the plots.
Before conducting the experiment, all the solutions, 96-well plates, and tips were heated at 37 °C. Equal volumes of tyrosine solutions (final concentration of 2.5 mM) were added to the 96-well plates, mixed with different concentrations of the inhibitors mentioned above and incubated for 10 min at 37 °C. Then, equal volume of the tyrosinase solution (100 U per well) was added to the 96-well plate using a multichannel pipette, which was placed immediately in a microplate reader under shaking conditions for 30 s. Finally, the light absorbance value at 475 nm was recorded at 37 °C continuously for 2 h with intervals of 20 s. The maximum reaction rate of tyrosinase at each concentration of the inhibitor was calculated.

As usually defined, the IC50 is the concentration at which inhibition is half-maximal. A high value points to weaker potency. For glutathione, the IC50 came out at 1180 µM.
